Activity calls are given as the source filed them. No cut-off for these calls is given here.

This passage reports inhibition results from ChEMBL document CHEMBL4145474, “Discovery of novel piperonyl derivatives as diapophytoene desaturase inhibitors for the treatment of methicillin-, vancomycin- and linezolid-resistant Staphylococcus aureus infections” (Eur J Med Chem, 2018).

This assay concerns the target T1, 4,4'-diapophytoene desaturase (4,4'-diaponeurosporene-forming) (Staphylococcus aureus (strain Newman)) (UniProt O07855).
T1 sequence (whole entry): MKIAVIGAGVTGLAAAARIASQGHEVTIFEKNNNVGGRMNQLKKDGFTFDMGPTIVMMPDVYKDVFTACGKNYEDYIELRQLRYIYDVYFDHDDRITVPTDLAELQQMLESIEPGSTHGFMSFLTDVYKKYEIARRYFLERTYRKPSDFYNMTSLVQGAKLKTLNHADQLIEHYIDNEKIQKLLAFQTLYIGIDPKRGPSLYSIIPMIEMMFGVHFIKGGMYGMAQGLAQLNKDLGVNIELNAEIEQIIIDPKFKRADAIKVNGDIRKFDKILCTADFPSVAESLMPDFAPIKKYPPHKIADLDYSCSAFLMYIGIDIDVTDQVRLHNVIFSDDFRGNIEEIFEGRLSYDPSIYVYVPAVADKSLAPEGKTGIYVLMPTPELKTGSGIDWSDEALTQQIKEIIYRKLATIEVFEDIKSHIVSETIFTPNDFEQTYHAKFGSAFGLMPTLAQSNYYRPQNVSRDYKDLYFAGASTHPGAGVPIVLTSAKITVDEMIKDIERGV
In words: Inhibition of Staphylococcus aureus Newman 6His-tagged CrtN expressed in Escherichia coli BL21(DE3) assessed as 4,4'-diapophytoene accumulation by UV-HPLC analysis. To be noted: Staphylococcus aureus subsp. aureus str. Newman. The method, boiled down: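 Substrate was E. coli-derived diapophytoene emulsified with phosphatidylcholine in 0.02 M HEPES pH 7.5. Enzyme was lysate of E. coli BL21(DE3) expressing 6His-CrtN (0.5 mM IPTG, 16 °C), about 1.41 mg CrtN, plus FAD from a 10 mM stock. Run anaerobically (glucose oxidase 20 U/mL, catalase 20000 U/mL, glucose 2 mM final) overnight at 37 °C, stopped with methanol. Triplicate; diapophytoene monitored by HPLC at 286 nm.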

As for `CN(C/C=C/c1ccccc1)Cc1cccc2ccccc12`, the inhibition result was “Active”.
